Assay results from US9326972B2, “Use of phenylmethimazoles, methimazole derivatives, and tautomeric cyclic thiones for the treatment of autoimmune/inflammatory diseases associated with toll-like receptor overexpression” (Ohio University, priority 2004, dated 2016).
Read-outs that look alike come from different tables or passages of the source.

Tested on: TLR3, MHC Class I, PKR, IP-10 mRNA in FRTL-5 cells
Details: FRTL-5, 100 U/ml IFN

B1: IFN-β: Type I IFN, from Biosource International (protein, UniProt P01574 22-187, looked up)
Interferon beta: MSYNLLGFLQRSSNFQCQKLLWQLNGRLEYCLKDRMNFDIPEEIKQLQQFQKEDAALTIYEMLQNIFAIFRQDSSSTGWNETIVENLLANVYHQINHLKTVLEEKLEKEDFTRGKLMSSLHLKRYYGRILHYLKAKEYSHCAWTIVRVEILRNFYFINRLTGYLRN
1 hr
  GAPDH mRNA, % of Control at 0 Time (±15%): 100 % of Control at 0 Time
  IP-10 mRNA, % of Control at 0 Time (±15%): 100 % of Control at 0 Time
  MHC Class I mRNA, % of Control at 0 Time (±15%): 100 % of Control at 0 Time
  PKR mRNA, % of Control at 0 Time (±15%): 100 % of Control at 0 Time
  TLR3 mRNA, % of Control at 0 Time (±15%): 100 % of Control at 0 Time
3 hr
  GAPDH mRNA, % of Control at 0 Time (±15%): 100 % of Control at 0 Time
  IP-10 mRNA, % of Control at 0 Time (±15%): 580 % of Control at 0 Time
  MHC Class I mRNA, % of Control at 0 Time (±15%): 300 % of Control at 0 Time
  PKR mRNA, % of Control at 0 Time (±15%): 500 % of Control at 0 Time
  TLR3 mRNA, % of Control at 0 Time (±15%): 550 % of Control at 0 Time
6 hr
  GAPDH mRNA, % of Control at 0 Time (±15%): 100 % of Control at 0 Time
  IP-10 mRNA, % of Control at 0 Time (±15%): 300 % of Control at 0 Time
  MHC Class I mRNA, % of Control at 0 Time (±15%): 400 % of Control at 0 Time
  PKR mRNA, % of Control at 0 Time (±15%): 450 % of Control at 0 Time
  TLR3 mRNA, % of Control at 0 Time (±15%): 450 % of Control at 0 Time
12 hr
  GAPDH mRNA, % of Control at 0 Time (±15%): 100 % of Control at 0 Time
  IP-10 mRNA, % of Control at 0 Time (±15%): 200 % of Control at 0 Time
  MHC Class I mRNA, % of Control at 0 Time (±15%): 425 % of Control at 0 Time
  PKR mRNA, % of Control at 0 Time (±15%): 450 % of Control at 0 Time
  TLR3 mRNA, % of Control at 0 Time (±15%): 250 % of Control at 0 Time
